{"sequences": {"note": "The chains behind the UniProt entries cited, without tags or fusion partners.", "UniProt P32239, whole entry partner": "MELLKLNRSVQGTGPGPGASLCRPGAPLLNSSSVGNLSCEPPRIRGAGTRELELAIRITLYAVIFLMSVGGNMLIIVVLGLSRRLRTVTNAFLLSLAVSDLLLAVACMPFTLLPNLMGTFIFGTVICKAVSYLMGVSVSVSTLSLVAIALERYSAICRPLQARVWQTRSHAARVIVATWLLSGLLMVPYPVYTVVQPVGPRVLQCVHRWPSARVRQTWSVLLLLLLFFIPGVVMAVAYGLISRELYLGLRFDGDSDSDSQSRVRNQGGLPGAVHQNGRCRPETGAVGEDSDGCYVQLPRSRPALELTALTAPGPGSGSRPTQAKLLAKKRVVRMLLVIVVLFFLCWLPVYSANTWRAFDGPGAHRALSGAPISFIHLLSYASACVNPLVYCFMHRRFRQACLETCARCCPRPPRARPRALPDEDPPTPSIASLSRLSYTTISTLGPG"}, "source": "paper PMC5960647", "about": "(Experimental & Molecular Medicine, 2018)", "assay_type_in_all_cases": "cell-based", "key": {"MOR + CCKBR [1]": {"biological_target": "T1, MOR + CCKBR (Homo sapiens, UniProt P32239+P35372)", "test": "Intracellular cAMP assay"}, "MOR": {"biological_target": "MOR (Homo sapiens, UniProt P35372)", "test": "ERK1/2 phosphorylation assay, HEK293 cells expressing HA-MOR alone"}, "MOR + CCKBR [2]": {"biological_target": "T1, MOR + CCKBR", "test": "ERK1/2 phosphorylation assay, HEK293 cells co-expressing HA-MOR and FLAG-CCKBR"}}, "data": [{"substance": "[D-Ala^2,N-Me-Phe^4,Gly-ol^5]-enkephalin [DAMGO]", "values": [{"measurement": "inhibition of forskolin-induced cAMP accumulation compared with cells expressing MOR alone", "setting": "MOR + CCKBR [1]; 10^−11 M DAMGO, 30 min, 100 μM forskolin, 500 μM IBMX, ELISA", "value": "inhibition of cAMP accumulation decreased"}, {"measurement": "cAMP response, difference between the two cell types at a higher dose", "setting": "MOR + CCKBR [1]; higher dose of DAMGO, co-expressing cells vs MOR alone", "value": "no significant difference"}, {"measurement": "time of return of ERK1/2 phosphorylation almost to basal level", "setting": "MOR; 10^−10 M DAMGO, MOR alone", "value": "~15", "unit": "min"}, {"measurement": "time of peak ERK1/2 phosphorylation", "setting": "MOR; 10^−10 M DAMGO, MOR alone, 1 to 60 min", "value": 5, "unit": "min"}, {"measurement": "ERK1/2 phosphorylation, concentration response", "setting": "MOR; DAMGO, cells expressing MOR alone, 37 °C, 5 min exposure", "value": "enhanced ERK1/2 phosphorylation in a concentration-dependent manner"}, {"measurement": "ERK1/2 phosphorylation at 5 min compared with cells expressing MOR alone", "setting": "MOR + CCKBR [2]; 10^−10 M DAMGO, 5 min, **p < 0.01, t-test, n = 3", "value": "decreased significantly"}, {"measurement": "time of return of ERK1/2 phosphorylation almost to basal level", "setting": "MOR + CCKBR [2]; 10^−10 M DAMGO, MOR and CCKBR co-expressing cells", "value": "~15", "unit": "min"}, {"measurement": "time of peak ERK1/2 phosphorylation", "setting": "MOR + CCKBR [2]; 10^−10 M DAMGO, MOR and CCKBR co-expressing cells, 1 to 60 min", "value": 5, "unit": "min"}, {"measurement": "ERK1/2 phosphorylation compared with cells expressing MOR alone", "setting": "MOR + CCKBR [2]; DAMGO 10^−10, 10^−9, and 10^−8 M, 5 min, *p < 0.05, t-test, n = 4", "value": "Significantly lower ERK1/2 phosphorylation responses"}, {"measurement": "ERK1/2 phosphorylation, concentration response", "setting": "MOR + CCKBR [2]; DAMGO, MOR and CCKBR co-expressing cells, 37 °C, 5 min exposure", "value": "enhanced ERK1/2 phosphorylation in a concentration-dependent manner"}]}]}
